Values quoted from earlier work in US8946301B2, “Targeting of T-lymphocytes to treat amyotrophic lateral sclerosis” (ALS Therapy Development Institute, priority 2011, dated 2015).

Tested on: patients with ALS
Conditions: Borras-Blasco et al. 1998; cited from earlier work

SMILES: Nc1nc2ccc(OC(F)(F)F)cc2s1 [Riluzole™]
- survival time of ALS patients: prolong survival time
